Measured values: PubChem BioAssay AID2006 (Sanford-Burnham Center for Chemical Genomics, 2009)
The entries are a selection whose mix differs from that of the whole data set. Some salts or complexes appear as unconnected parts, following the source record. Activity calls are given as the source filed them. Cut-off read from the data, not from the text of the source: active = inhibition above about 50% (passing the limit was not always enough); inconclusive = no clear call, values can overlap the other calls.

Sequences of proteins named here, by UniProt entry; tags and fusion partners are left off.
UniProt P63279, whole entry: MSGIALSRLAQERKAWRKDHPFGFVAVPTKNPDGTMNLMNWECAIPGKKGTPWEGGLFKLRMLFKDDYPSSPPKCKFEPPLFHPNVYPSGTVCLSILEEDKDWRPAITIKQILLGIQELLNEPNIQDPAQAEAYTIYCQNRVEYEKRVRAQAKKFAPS

What follows are molecules tested against SUMO-conjugating enzyme UBC9 (Homo sapiens) (UniProt P63279) (assay: blockers of SAE1/SAE2–UBC9 SUMO transfer – biochemical, HTRF, uHTS, primary screen (AID 2006)). Conditions: HTRF SUMOylation assay, SAE1/SAE2 + UBC9, in vitro; at 35 µM; stronger effect = higher value.

| Compound | inhibition |
| --- | --- |
| CCN(CC)CCCOC(=O)C(O)(c1ccccc1)C1CCCCC1 (stereo not given) | inactive: 7.3% |
| O=[N+]([O-])c1cc([N+](=O)[O-])c(OC2CCCCC2O)c([N+](=O)[O-])c1 (stereo not given) | inactive: 11.7% |
| CCCCCOc1ccc(NP(C)(=O)Oc2ccc(Cl)cc2Cl)cc1 (stereo not given) | inactive: 13.1% |
| CP(=O)(Nc1ccccc1)Oc1ccc(F)cc1 (stereo not given) | inactive: -6.8% |
| COc1ccc(OP(C)(=O)Nc2ccc(SC(F)(F)F)cc2)cc1 (stereo not given) | inactive: -11% |
| CCOC(=O)c1ccc(NP(C)(=O)Oc2ccc(F)cc2)cc1 (stereo not given) | inactive: 0.3% |
| O=C(OCCN1CCN(CCOCc2ccccc2)CC1)C(O)(c1ccccc1)c1ccccc1 | inactive: -14.1% |
| O=C(OC1CN2CCC1CC2)c1ccc([N+](=O)[O-])cc1 (stereo not given) | inactive: 11.1% |
| COc1ccc2c(c1O)-c1c(O)c(OC)cc3c1[C@H](C2)[N+](C)(C)CC3.O=[N+]([O-])c1cc([N+](=O)[O-])c([O-])c([N+](=O)[O-])c1[O-] | inactive: 12.5% |
| CC(C)c1ccc(OP(C)(=O)Nc2ccc(SC(F)(F)F)cc2)cc1 (stereo not given) | inactive: -40.5% |
| CP(=O)(Nc1ccccc1F)Oc1ccccc1 (stereo not given) | inactive: 13.9% |
| CP(=O)(Nc1ccc2c(c1)OCCO2)Oc1ccccc1 (stereo not given) | inactive: -31.9% |
| Cc1ccccc1NP(C)(=O)Nc1ccccc1C | inactive: 7.1% |
| CP(=O)(Nc1ccc(SC(F)(F)F)cc1)Oc1ccc(F)cc1 (stereo not given) | inactive: 12.7% |
| CCOP(C)(=S)SCC(=O)NC(C)(CC)C(=O)O (stereo not given) | inactive: 7.8% |
| Cc1cc(-c2cccc3ccccc23)c(C)cn1.O=[N+]([O-])c1cc([N+](=O)[O-])c(O)c([N+](=O)[O-])c1 | inactive: 19.4% |
| O=[N+]([O-])c1cc([N+](=O)[O-])c(NCC2CCS(=O)(=O)C2)c([N+](=O)[O-])c1 (stereo not given) | inactive: 0% |
| O=[N+]([O-])c1ccc(OP2(=O)COCCO2)cc1 (stereo not given) | inactive: 6.4% |
| COc1ccc(OP(C)(=O)Nc2cccc(Br)c2)cc1 (stereo not given) | inactive: -4.3% |
| COc1ccc(NP(C)(=O)Oc2ccccc2OC)cc1 (stereo not given) | inactive: 0.4% |
| CN(C)CCOC(=O)C(O)(c1ccccc1)C1CCCCC1 (stereo not given) | inactive: 16.4% |
| CP(=O)(OC12CC3CC(CC(C3)C1)C2)OC12CC3CC(CC(C3)C1)C2 | inactive: 2.8% |

| Compound | inhibition |
| --- | --- |
| CCOC(=O)c1ccc(NP(C)(=O)Oc2ccc(Cl)cc2)cc1 (stereo not given) | inactive: -6.2% |
| CP(=O)(Nc1ccc(Cl)cc1)Oc1ccc(F)cc1 (stereo not given) | inactive: 9.5% |
| CC(C)(C)c1ccc(OP(C)(=O)O)cc1 | inactive: 13.4% |
| COc1ccccc1OP(C)(=O)Nc1ccccc1Br (stereo not given) | inactive: 1.6% |
| CN(C)C(=O)c1c([N+](=O)[O-])cc([N+](=O)[O-])cc1[N+](=O)[O-] | inactive: 19.1% |
| CCN(CC)CC(O)COC(=O)C(O)(c1ccccc1)C1CCCCC1 (stereo not given) | inactive: 6% |
| COc1ccc(OP(C)(=O)Nc2ccc(Br)cc2)cc1 (stereo not given) | inactive: -0.9% |
| CP(=O)(Oc1ccccc1)N1CCOC1=O (stereo not given) | inactive: 1.8% |
| CCc1ccc(OP(C)(=O)Nc2cccnc2)cc1 (stereo not given) | inactive: 4.2% |
| COc1ccccc1OP(C)(=O)Nc1c(C)n(C)n(-c2ccccc2)c1=O (stereo not given) | inactive: -0.4% |
| O=C(OCCCN1CCCC1)C(O)(c1ccccc1)C1CCCCC1 (stereo not given) | inactive: 8.6% |
| O=[N+]([O-])c1cc([N+](=O)[O-])c(Nc2ccccn2)c([N+](=O)[O-])c1 | inactive: 2.1% |
| Cc1c(NP(C)(=O)Oc2ccc(C(C)C)cc2)c(=O)n(-c2ccccc2)n1C (stereo not given) | inactive: 1.5% |
| CCc1ccc(OP(C)(=O)O)cc1 | inactive: 21.9% |
| CP(=O)(Nc1ccccn1)Oc1ccccc1 (stereo not given) | inactive: -3.4% |
| COc1ccccc1OP(C)(=O)Nc1ccc(C)cc1C (stereo not given) | inactive: 20% |
| COc1ccccc1OP(C)(=O)Nc1ccc(Br)cc1 (stereo not given) | inactive: 24.8% |
| CN(C)CCOC(=O)C(O)(c1ccccc1)C1CCCC1 (stereo not given) | inactive: 4.4% |
| COc1ccc(OP(C)(=O)Nc2ccccn2)cc1 (stereo not given) | inactive: 16% |
| Cc1nc2ccc3ccccc3c2o1.O=[N+]([O-])c1cc([N+](=O)[O-])c(O)c([N+](=O)[O-])c1 | inactive: -17% |
| CP(=O)(OCCOc1ccccc1)OCCOc1ccccc1 | inactive: 2.7% |
| CP(=O)(Nc1ccc(Cl)cc1Cl)Oc1ccccc1 (stereo not given) | inactive: 5% |

| Compound | inhibition |
| --- | --- |
| Cc1cc(C)cc(OP(C)(=O)Nc2cccc(C(F)(F)F)c2)c1 (stereo not given) | inactive: -7.8% |
| COc1ccc(OP(C)(=O)Nc2ccccc2Br)cc1 (stereo not given) | inactive: 7.4% |
| COc1ccccc1OP(C)(=O)Nc1ccc(C)c(C)c1 (stereo not given) | inactive: 14% |
| CCOC(=O)c1ccc(NP(C)(=O)Oc2ccccc2)cc1 (stereo not given) | inactive: 0.2% |
| COc1ccccc1OP(C)(=O)Nc1ccc(C)cc1 (stereo not given) | inactive: 20.7% |
| Cc1ccc(NP(C)(=O)Oc2ccccc2)c(C)c1 (stereo not given) | inactive: 16.8% |
| COc1ccccc1OP(C)(=O)Nc1cc(Cl)ccc1C (stereo not given) | inactive: -3.8% |
| COc1ccc(OP(C)(=O)Nc2cccc(F)c2)cc1 (stereo not given) | inactive: -3% |
| Cc1cc(C)cc(OP(C)(N)=O)c1 (stereo not given) | inactive: 21.3% |
| CC(C)(C)c1ccc(OP(C)(=O)Nc2ccc(SC(F)(F)F)cc2)cc1 (stereo not given) | inactive: -47.1% |
| Cc1cccc(C)c1OP(C)(N)=O (stereo not given) | inactive: 2.1% |
| O=[N+]([O-])c1ccc2c(c1)C=Nc1ccccc1O2 | inactive: 4% |
| CCN(CC)CCCOC(=O)C(O)(c1ccccc1)c1ccccc1 | inactive: 3.9% |
| CCOP(C)(=S)SCC(=O)NC(C)C(=O)O (stereo not given) | inactive: 21.4% |
| CCOC(=O)c1ccc(NP(C)(=O)Oc2ccc(OC)cc2)cc1 (stereo not given) | inactive: 1.7% |
| CP(=O)(Nc1ccccn1)Oc1ccc(Cl)cc1 (stereo not given) | inactive: -6.1% |
| CP(=O)(Nc1ccc(SC(F)(F)F)cc1)Oc1ccc(Cl)cc1 (stereo not given) | inactive: -17.1% |
| Cc1cccc(C)c1OP(C)(=O)Nc1ccc(SC(F)(F)F)cc1 (stereo not given) | inactive: -4.8% |
| CP(=O)(Oc1ccccc1)OC(c1ccccc1)C(F)(F)F (stereo not given) | inactive: -5.5% |
| CCc1ccc(OP(C)(=O)N2CCN(c3ccc([N+](=O)[O-])cc3)CC2)cc1 (stereo not given) | inactive: 21.4% |
| CP(=O)(NC(=O)Nc1ccccc1)Oc1ccccc1 (stereo not given) | inactive: 11.8% |
| Cc1cc(C)cc(OP(C)(=O)Nc2ccc(SC(F)(F)F)cc2)c1 (stereo not given) | inactive: -20.7% |

| Compound | inhibition |
| --- | --- |
| CP(=S)(Nn1cnnc1)Oc1ccccc1 (stereo not given) | inactive: 1.7% |
| COc1ccccc1OP(C)(=O)Nc1ccccc1 (stereo not given) | inactive: -14.9% |
| CP(=O)(Nc1ccccc1Br)Oc1ccccc1 (stereo not given) | inactive: 9.6% |
| CN1CCCCC1COC(=O)C1(O)c2ccccc2CCc2ccccc21 (stereo not given) | inactive: 10.5% |
| COc1ccccc1OP(C)(=O)Nc1c(C)cccc1C (stereo not given) | inactive: 11% |
| CP(=O)(Nc1ccc(SC(F)(F)F)cc1)Oc1ccccc1 (stereo not given) | inactive: -10% |
| CCCOc1ccc(NP(C)(=O)Oc2ccc(Cl)cc2)cc1 (stereo not given) | inactive: -8.5% |
| O=[N+]([O-])c1cc([N+](=O)[O-])c(Nc2nnnn2CCO)c([N+](=O)[O-])c1 | inactive: 11.9% |
| CCOC(=O)C(CC)C1=NC(C)(C)Cc2ccccc21.O=[N+]([O-])c1cc([N+](=O)[O-])c(O)c([N+](=O)[O-])c1 (stereo not given) | inactive: 8.3% |
| Cc1nc2ccc3ccccc3c2s1.O=[N+]([O-])c1cc([N+](=O)[O-])c(O)c([N+](=O)[O-])c1 | inactive: 16.2% |
| O=[N+]([O-])c1cc([N+](=O)[O-])c(-n2nnc3ccccc32)c([N+](=O)[O-])c1 | inactive: 5.6% |
| CP(=O)(Nc1cccc(Br)c1)Oc1ccccc1 (stereo not given) | inactive: 10.7% |
| Cc1cc(C)cc(OP(C)(=O)Nc2ccccn2)c1 (stereo not given) | inactive: -0.2% |
| Cc1ccc(C)c(NP(C)(=O)Oc2ccccc2)c1 (stereo not given) | inactive: -12.5% |
| COc1ccccc1OP(C)(=O)Nc1cccc(Br)c1 (stereo not given) | inactive: 9.1% |
| Cc1cc(C)cc(OP(C)(=O)Nc2ccc(C)cc2C)c1 (stereo not given) | inactive: 7.7% |
| CCOC(=O)c1ccc(NP(C)(=O)Oc2cc(C)cc(C)c2)cc1 (stereo not given) | inactive: -5.1% |
| CC1=NCCc2c1[nH]c1ccccc21.O=[N+]([O-])c1cc([N+](=O)[O-])c(O)c([N+](=O)[O-])c1 | inactive: 14.9% |
| O=C(O)c1cccc(Nc2c([N+](=O)[O-])cc([N+](=O)[O-])cc2[N+](=O)[O-])c1 | inactive: 11.2% |
